Substitutions are numbered along the chain they refer to.
Columns and labels:
GIPR E461* = biological target: T1, GIPR E461* (Homo sapiens, UniProt P48546); experiment: cAMP accumulation; type: cell-based; set-up: host or cells: HEK293
T1 sequence (P48546 22-460 limits assumed): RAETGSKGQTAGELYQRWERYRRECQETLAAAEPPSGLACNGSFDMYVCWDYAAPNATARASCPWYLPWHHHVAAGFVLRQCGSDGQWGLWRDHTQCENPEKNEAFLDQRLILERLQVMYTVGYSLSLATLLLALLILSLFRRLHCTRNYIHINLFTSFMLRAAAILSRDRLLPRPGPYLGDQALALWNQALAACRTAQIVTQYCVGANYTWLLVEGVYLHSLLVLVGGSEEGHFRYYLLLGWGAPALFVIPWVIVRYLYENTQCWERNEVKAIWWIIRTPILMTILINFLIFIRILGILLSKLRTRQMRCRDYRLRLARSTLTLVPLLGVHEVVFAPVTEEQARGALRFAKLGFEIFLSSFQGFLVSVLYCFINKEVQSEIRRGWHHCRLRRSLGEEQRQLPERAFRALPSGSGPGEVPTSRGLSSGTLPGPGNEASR

GIPR W233* = biological target: T2, GIPR W233* (Homo sapiens, UniProt P48546); experiment: cAMP accumulation; type: cell-based
T2 construct: host or cells: HEK293

GIPR A185V = biological target: T3, GIPR A185V (Homo sapiens, UniProt P48546, A185V); experiment: cAMP accumulation; type: cell-based; set-up: host or cells: HEK293
T3 sequence (P48546 22-466 A185V): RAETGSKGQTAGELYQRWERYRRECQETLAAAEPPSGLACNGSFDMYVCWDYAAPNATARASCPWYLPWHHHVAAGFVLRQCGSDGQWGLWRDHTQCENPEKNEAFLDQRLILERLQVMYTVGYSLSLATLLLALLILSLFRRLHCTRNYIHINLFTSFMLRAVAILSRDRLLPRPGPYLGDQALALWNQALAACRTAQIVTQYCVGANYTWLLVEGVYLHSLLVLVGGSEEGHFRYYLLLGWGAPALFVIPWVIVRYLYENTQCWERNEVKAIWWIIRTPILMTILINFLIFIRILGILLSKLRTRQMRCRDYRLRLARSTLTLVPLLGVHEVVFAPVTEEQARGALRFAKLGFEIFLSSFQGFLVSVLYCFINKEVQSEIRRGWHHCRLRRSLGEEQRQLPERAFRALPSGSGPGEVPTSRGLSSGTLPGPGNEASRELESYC

GIPR A207V = biological target: T4, GIPR A207V (Homo sapiens, UniProt P48546, A207V); experiment: cAMP accumulation; type: cell-based; set-up: host or cells: HEK293
T4 sequence (P48546 22-466 A207V): T3 sequence (P48546 22-466 A185V) with V164A, A186V

GIPR L13F = biological target: T5, GIPR L13F (Homo sapiens, UniProt P48546); experiment: cAMP accumulation; type: cell-based; set-up: host or cells: HEK293
T5 sequence (P48546 22-466): T3 sequence (P48546 22-466 A185V) with V164A

GIPR A150T = biological target: T6, GIPR A150T (Homo sapiens, UniProt P48546, A150T); conditions: GIPR A150T (1.52), mean, n = 5, duplicate
T6 sequence (P48546 22-466 A150T): T3 sequence (P48546 22-466 A185V) with A129T, V164A

GIPR R300W = biological target: T7, GIPR R300W (Homo sapiens, UniProt P48546, R300W); experiment: cAMP accumulation; type: cell-based
T7 construct: host or cells: HEK293

[1] = HEK293, GIP(1–42) 1 pM–100 nM, 30 min 37 °C, mean of n = 3
[2] = HEK293, Hill slope 1.0, mean of n = 3

glucose-dependent insulinotropic polypeptide [GIP]
cAMP production class (GIPR E461*; E461* (GoFcAMP)): more cAMP production | cAMP (Emax) (GIPR E461*; E461*, HEK293, GIP(1–42) 1 pM–100 nM, 30 min 37 °C, mean of n = 4): 179 % of WT GIPR activity | logEC50 (cAMP) (GIPR E461*; E461*, HEK293, Hill slope 1.0, mean of n = 4): -11.1 | cAMP (Emax) (GIPR W233*; [1]): 86 % of WT GIPR activity | logEC50 (cAMP) (GIPR W233*; [2]): -8.8 | cAMP (Emax) (GIPR A185V; [1]): 27 % of WT GIPR activity | logEC50 (cAMP) (GIPR A185V; [2]): -11.6 | cAMP (Emax) (GIPR A207V; HEK293, GIP(1–42) 1 pM–100 nM, 30 min 37 °C, mean of n = 6): 20 % of WT GIPR activity | logEC50 (cAMP) (GIPR A207V; HEK293, Hill slope 1.0, mean of n = 6): -9.9 | cAMP (Emax) (GIPR L13F; HEK293, GIP(1–42) 1 pM–100 nM, 30 min 37 °C, mean of n = 4): 87 % of WT GIPR activity | logEC50 (cAMP) (GIPR L13F; HEK293, Hill slope 1.0, mean of n = 4): -11.3 | logEC50 (Arrestin) (GIPR A150T; Hill slope 1.0): -8.9 | Arrestin (Emax) (GIPR A150T; normalized to WT GIPR): 82 | cAMP (Emax) (GIPR R300W; [1]): 114 % of WT GIPR activity | logEC50 (cAMP) (GIPR R300W; [2]): -8.2

Reference: publication PMC11272584 (Nature Metabolism, 2024)
